Source: article PMC12040969, “Design, synthesis, in silico studies, and apoptotic antiproliferative activity of novel thiazole-2-acetamide derivatives as tubulin polymerization inhibitors” (Frontiers in Chemistry, 2025)

Assays:
[1] = system: prostatic - PC-3; assay: Antiproliferative assay (MTT) PC-3
[2] = system: colon - HCT-116; assay: Antiproliferative assay (MTT) HCT-116
[3] = system: - MDAMB-231; assay: Antiproliferative assay (MTT) MDAMB-231
[4] = system: Bax in MDAMB-231 cancer cell line; assay: Bax level assay; format: cell-based, human; conditions: MDAMB-231 cells, relative to untreated control
Excerpt: (§1) […]. Supplementary Appendix A provides more information.

[5] = system: Caspase-9 in MDAMB-231 cancer cell line; assay: Caspase-9 activation assay; format: cell-based, human; conditions: MDAMB-231 cells, relative to untreated control
Procedure: […]. Compound 10o was the least efficient derivative as caspase-9 activators (0.90 ng/mL).
as §1

[6] = system: breast - MCF-7; assay: Antiproliferative assay (MTT) MCF-7
[7] = system: Bcl-2 in MDAMB-231 cancer cell line; assay: Bcl-2 level assay; format: cell-based, human; conditions: MDAMB-231 cells, relative to untreated control
Excerpt: as §1

[8] = system: Caspase-3 in MDAMB-231 cancer cell line; assay: Caspase-3 activation assay; format: cell-based, human; conditions: MDAMB-231 cells, relative to untreated control
Excerpt: as §1

SMILES: Cc1nc(SCC(=O)Nc2nc(-c3ccccc3)cs2)sc1C(=O)/C=C/c1ccccc1 [Compound 10a, (E)-2-((5-cinnamoyl-4-methylthiazol-2-yl)thio)-N-(4-phenylthiazol-2-yl)acetamide]
- Average of Relative viability of cells (%) ([1]; PC-3, 1.56 µM): 88.7%
- Average of Relative viability of cells (%) ([1]; PC-3, 3.125 µM): 70.4%
- Average of Relative viability of cells (%) ([1]; PC-3, 6.25 µM): 52.2%
- Average of Relative viability of cells (%) ([1]; PC-3, 12.5 µM): 32.6%
- Average of Relative viability of cells (%) ([1]; PC-3, 25 µM): 24.5%
- Average of Relative viability of cells (%) ([1]; PC-3, 50 µM): 17.2%
- Average of Relative viability of cells (%) ([1]; PC-3, 100 µM): 9.3%
- Average of Relative viability of cells (%) ([2]; HCT-116, 1.56 µM): 89.2%
- Average of Relative viability of cells (%) ([2]; HCT-116, 3.125 µM): 69.8%
- Average of Relative viability of cells (%) ([2]; HCT-116, 6.25 µM): 60.1%
- Average of Relative viability of cells (%) ([2]; HCT-116, 12.5 µM): 31.5%
- Average of Relative viability of cells (%) ([2]; HCT-116, 25 µM): 25.4%
- Average of Relative viability of cells (%) ([2]; HCT-116, 50 µM): 16.9%
- Average of Relative viability of cells (%) ([2]; HCT-116, 100 µM): 8.7%
- Average of Relative viability of cells (%) ([3]; MDAMB-231, 1.56 µM): 87.6%
- Average of Relative viability of cells (%) ([3]; MDAMB-231, 3.125 µM): 65.5%
- Average of Relative viability of cells (%) ([3]; MDAMB-231, 6.25 µM): 39.1%
- Average of Relative viability of cells (%) ([3]; MDAMB-231, 12.5 µM): 34.1%
- Average of Relative viability of cells (%) ([3]; MDAMB-231, 25 µM): 21.2%
- Average of Relative viability of cells (%) ([3]; MDAMB-231, 50 µM): 14.3%
- Average of Relative viability of cells (%) ([3]; MDAMB-231, 100 µM): 7.4%
- Bax Fold change [4]: 38 fold
- Caspase-9 Fold change [5]: 16 fold
- Average of Relative viability of cells (%) ([6]; MCF-7, 1.56 µM): 67.3%
- Average of Relative viability of cells (%) ([6]; MCF-7, 3.125 µM): 53.3%
- Average of Relative viability of cells (%) ([6]; MCF-7, 6.25 µM): 42.8%
- Average of Relative viability of cells (%) ([6]; MCF-7, 12.5 µM): 24.3%
- Average of Relative viability of cells (%) ([6]; MCF-7, 25 µM): 16.7%
- Average of Relative viability of cells (%) ([6]; MCF-7, 50 µM): 10.4%
- Average of Relative viability of cells (%) ([6]; MCF-7, 100 µM): 5.2%
- Potency relative to sorafenib, MCF-7 ([6]; MCF-7 breast cancer cell line): twice as strong as sorafenib
- Bcl-2 Fold reduction [7]: 6 fold
- Caspase-3 Fold change [8]: ~10 fold
